In US20110092524A1, “Agent for Enhancing Corneal Epithelial Barrier Function” (SANTEN PHARMACEUTICAL CO., LTD., priority 2008, published 2011):

Test system: SV40-immortalized human corneal epithelial cells (HCE-T)
Experiment: Enhancing effect of PPARγ agonist on barrier function (membrane electrical resistance of corneal epithelial cell layer)
Type: cell-based
Details: sample 10 μM, five days after seeding, average of four experiments, base culture 296.0
Experimental: The PPARγ agonist was evaluated with respect to the enhancing effect on the barrier function of a corneal epithelial cell. For the corneal epithelial cell, an SV40-immortalized human corneal epithelial cell line was used, utilizing a membrane electrical resistance as an index of the barrier function. When the bather function of the corneal epithelial cell is enhanced, the membrane electrical resistance increases, while the bather function is reduced, the membrane electrical resistance decreases.
From RIKEN BioResource Center, SV40-immortalized human corneal epithelial cells (HCE-T) were obtained. […] As the culture medium, a DMEM/Ham's F12 (Nacalai Tesque, Inc.) containing 15% fetal bovine serum (ICN) and 40 μg/mL of gentamicin (Gibco) was used. […] The concentration mentioned above was attained by dissolving each sample in DMSO and diluting 1,000-fold with the culture medium. In addition, a culture medium containing DMSO alone was used as a base culture medium.
Five days after the seeding, an electrical resistance of an epithelial cell layer was measured using a membrane electrical resistance measurement system (World Precision Instruments). A well containing the base medium alone with no corneal epithelial cell seeded was measured as a blank, and the value was subtracted from the electrical resistance of the epithelial cell layer. […]

How did the Membrane electrical resistance turn out when `C/C(=C/C(=O)c1ccccc1)N[C@@H](Cc1ccc(OCCc2nc(-c3ccccc3)oc2C)cc1)C(=O)O` [GW-544, N-[1-methyl-3-oxo-3-phenyl-1(Z)-propenyl]-O-[2-(5-methyl-2-phenyloxazol-4-yl)ethyl]-L-tyrosine] was run?
The Membrane electrical resistance was 435.3 Ω · cm^2.
